By UniProt entry, the sequences of proteins in these tests, tags left out. Residues count along the entry.
UniProt O60674, 808-1132: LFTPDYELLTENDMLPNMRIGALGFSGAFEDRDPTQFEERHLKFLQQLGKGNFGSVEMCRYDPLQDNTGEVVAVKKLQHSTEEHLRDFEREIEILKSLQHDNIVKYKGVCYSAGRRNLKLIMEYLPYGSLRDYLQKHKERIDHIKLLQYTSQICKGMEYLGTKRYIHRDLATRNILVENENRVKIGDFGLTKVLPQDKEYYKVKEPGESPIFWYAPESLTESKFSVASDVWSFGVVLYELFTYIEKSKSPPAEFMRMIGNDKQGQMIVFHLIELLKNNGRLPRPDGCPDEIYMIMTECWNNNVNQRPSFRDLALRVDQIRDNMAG

According to patent publication US11564923B2, “Compounds and pharmaceutical compositions thereof for the treatment of inflammatory disorders” (Galapagos NV, priority 2017, dated 2023):

Target: T1, Recombinant human JAK2 (catalytic domain, amino acids 808-1132) (Homo sapiens, UniProt O60674)
T1 construct: catalytic domain, amino acids 808-1132
Test: JAK2 inhibition assay; also: 0.7 µM ATP
Format: biochemical
Conditions: read-out: JAK2 potency IC50
Experimental: After 60 min at room temperature, reactions are stopped by adding 20 μL/well of detection mixture (1× detection buffer (Perkin Elmer, catalog number CR97-100) with 0.5 nM Europium-anti-phosphotyrosine (PT66) (Perkin Elmer, catalog number AD0068/AD0069) and 10 mM EDTA). […] Kinase activity is calculated by subtracting the ratio obtained in the presence of a positive control inhibitor (1 μM staurosporine) from the ratio obtained in the presence of vehicle. The ability of a test compound to inhibit this activity (or percentage inhibition) is determined as:
[formula] wherein Fluorescent ratio test compound=ratio RFU665/RFU615*1000 determined for sample with test compound present Fluorescent ratio control=ratio RFU665/RFU615*1000 determined for sample with positive control inhibitor Fluorescent ratio vehicle=ratio RFU665/RFU615*1000 determined in the presence of vehicle
Dose dilution series are prepared for compound enabling the testing of dose-response effects in the JAK2 assay and the calculation of the IC50 for the compound. Each compound is routinely tested at concentration of 20 μM followed by a 1/5 serial dilution, 10 points in a final concentration of 1% DMSO. […] The data are expressed as the average IC50 from the assays.

SMILES: Cc1cc(S(C)(=O)=O)cc(F)c1Oc1cc(Nc2cc(N)ncn2)c2ncn(C)c2n1 [Compound 2, N-[5-(2-Fluoro-4-methanesulfonyl-6-methyl-phenoxy)-3-methyl-3H-imidazo[4,5-b]pyridin-7-yl]-pyrimidine-4,6-diamine]
- IC50: 0.0194 µM
